Tests used:
human μ-opiate receptor = human μ-opiate receptor (Homo sapiens, UniProt P35372); test: μ-opiate receptor binding, [3H]-Naloxon displacement; details: test substance 1 μmol/l; CHO-K1 membranes expressing human μ-opiate receptor; 1 nmol/l [3H]-Naloxon
[1] = tested on: binding site 2 of the sodium channel (BTX binding site); test: Sodium channel binding site 2 (BTX bond), [3H]-batrachotoxinin A20 α-benzoate; details: synaptosomes from rat cerebrocortex, 10 nM [3H]-batrachotoxinin A20 α-benzoate
ORL1 receptor = ORL1 receptor (Homo sapiens, UniProt P41146); test: ORL1 receptor-binding assay with 3H-nociceptin/orphanin FQ; details: test concentration 1 μM; membranes of recombinant CHO-ORL1 cells; 0.5 nM 3H-nociceptin/orphanin FQ

Sequences of proteins named here, by UniProt entry; tags and fusion partners are left off. A change or cut given only in a name is not applied to a line headed by its entry.
UniProt P35372, whole entry, looked up: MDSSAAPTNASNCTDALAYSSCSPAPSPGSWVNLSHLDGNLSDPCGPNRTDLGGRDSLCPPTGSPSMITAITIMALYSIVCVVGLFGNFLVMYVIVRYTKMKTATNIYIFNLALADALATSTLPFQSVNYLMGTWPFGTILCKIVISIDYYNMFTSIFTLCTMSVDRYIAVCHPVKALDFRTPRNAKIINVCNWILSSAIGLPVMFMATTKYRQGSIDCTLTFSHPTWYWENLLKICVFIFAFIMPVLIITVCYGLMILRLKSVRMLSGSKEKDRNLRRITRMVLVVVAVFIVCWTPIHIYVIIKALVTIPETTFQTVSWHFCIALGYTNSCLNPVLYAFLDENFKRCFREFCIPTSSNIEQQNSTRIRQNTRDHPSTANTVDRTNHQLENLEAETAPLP
UniProt P41146: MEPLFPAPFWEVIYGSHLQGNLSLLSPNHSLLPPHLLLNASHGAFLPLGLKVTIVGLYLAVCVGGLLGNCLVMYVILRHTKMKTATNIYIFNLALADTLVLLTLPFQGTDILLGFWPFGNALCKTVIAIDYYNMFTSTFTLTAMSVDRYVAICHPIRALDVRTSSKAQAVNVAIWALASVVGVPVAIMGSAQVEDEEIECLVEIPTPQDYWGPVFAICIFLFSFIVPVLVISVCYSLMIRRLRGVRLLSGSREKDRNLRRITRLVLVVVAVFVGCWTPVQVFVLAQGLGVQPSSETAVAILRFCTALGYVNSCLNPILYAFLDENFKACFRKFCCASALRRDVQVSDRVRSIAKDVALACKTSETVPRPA

Compound	% inhibition [1 μM] (human μ-opiate receptor)	% inhibition [10 μM] [1]	% inhibition (ORL1 bond) (ORL1 receptor)
CN(C)C1(c2cccc(F)c2)CCC2(CC1)OCCc1[nH]c3ccccc3c12.O=S(=O)(O)C(F)(F)F (centres unmarked)	59%	74%	–
CN(C)C1(c2ccccc2)CCC2(CC1)OCCc1[nH]c3ccccc3c12.O=C(O)CC(O)(CC(=O)O)C(=O)O (centres unmarked)	61%	76%	–
N,N-dimethyl-N-{4-(3-fluorophenyl)-spiro[cyclohexane-1.4′-1′,4′-dihydro-2′H;-3′-oxa-9′-thiafluoren]-4-yl}ammonium triflate	–	76%	–
N,N-dimethyl-N-{4-(4-fluorophenyl)-1′,3′,4′,5′-tetrahydro-spiro[cyclohexane-1,1′-pyrano[4.3-b]indol]-4-yl}ammonium triflate	62%	64%	–
N,N-dimethyl-N-{4-(4-fluorophenyl)-spiro[cyclohexane-1,4′-1′,4′-dihydro-2′H;-3′-oxa-9′-thiafluoren]-4-yl}ammonium triflate	–	71%	–
N,N-dimethyl-N-{4-phenyl-1′,4′-dihydrospiro[cyclohexane-1,4′-2′H-3′,9′-dioxafluoren]-4-yl}ammonium methane sulphonate	60%	86%	–
N,N-dimethyl-N-{4-phenyl-1′,4′-dihydrospiro[cyclohexane-1,4′-2′H-9′-oxa-3′-thiafluoren]-4-yl}ammonium methane sulphonate	–	74%	–
N,N-dimethyl-N-{4-phenyl-1′,4′-dihydrospiro[cyclohexane-1,4′-2′H;-3′,9′-dithiafluoren]-4-yl}ammonium methane sulphate	–	75%	–
N,N-dimethyl-N-{4-phenyl-spiro[cyclohexane-1,4′-1′,4′-dihydro-2′H;-3′-oxa-9′-thiafluoren]-4-yl}aminetriflate	54%	82%	–
N,N-dimethyl-N-{4-pyridine-1′,3′,4′,5′-tetrahydro-spiro[cyclohexane-1-1′-pyrano[4,3-c]indol]-4-yl}amine citrate	78%	84%	49%
